Results on one molecule are retold here after US10793631B2, “Human PAC1 antibodies” (AMGEN INC., priority 2013, dated 2020).

Sequences of proteins named here, by UniProt entry; tags and fusion partners are left off. Residues count along the entry.
UniProt P32241, 31-457: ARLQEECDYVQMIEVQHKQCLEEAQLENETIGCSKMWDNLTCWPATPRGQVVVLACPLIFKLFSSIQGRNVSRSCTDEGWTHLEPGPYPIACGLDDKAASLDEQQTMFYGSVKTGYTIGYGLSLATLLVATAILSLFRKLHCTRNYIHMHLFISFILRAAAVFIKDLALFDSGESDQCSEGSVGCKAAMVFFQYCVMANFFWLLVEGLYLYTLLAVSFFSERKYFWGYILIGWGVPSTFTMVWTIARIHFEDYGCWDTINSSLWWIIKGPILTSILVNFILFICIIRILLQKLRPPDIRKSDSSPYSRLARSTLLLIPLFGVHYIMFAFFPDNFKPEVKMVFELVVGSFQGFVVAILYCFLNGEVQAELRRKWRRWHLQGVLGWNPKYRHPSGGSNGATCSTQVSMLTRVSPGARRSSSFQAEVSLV

One assay has as its target VPAC1 (Homo sapiens, UniProt P32241). As to the kind of experiment: Activity and selectivity of PAC1 agonists on VPAC1. Format: cell-based. The settings on record: relative to PAC1.
A further assay deals with T1, VPAC2 (Homo sapiens, UniProt P41587).
T1 sequence (P41587 24-438): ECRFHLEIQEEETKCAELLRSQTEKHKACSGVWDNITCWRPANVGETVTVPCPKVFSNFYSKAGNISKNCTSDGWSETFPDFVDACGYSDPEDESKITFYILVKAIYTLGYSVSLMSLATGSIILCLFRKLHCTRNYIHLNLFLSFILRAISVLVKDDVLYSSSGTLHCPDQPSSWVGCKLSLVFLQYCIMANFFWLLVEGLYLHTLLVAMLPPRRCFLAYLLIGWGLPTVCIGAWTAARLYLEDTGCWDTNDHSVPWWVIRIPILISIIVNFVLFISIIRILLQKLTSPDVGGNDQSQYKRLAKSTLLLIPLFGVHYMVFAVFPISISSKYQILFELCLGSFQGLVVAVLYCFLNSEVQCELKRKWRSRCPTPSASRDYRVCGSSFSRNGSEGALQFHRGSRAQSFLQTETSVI
Description: Activity and selectivity of PAC1 agonists on VPAC2. To be noted: relative to PAC1. Format: cell-based.

As for `CC[C@H](C)[C@H](NC(=O)[C@H](CO)NC(=O)[C@H](CC(N)=O)NC(=O)[C@H](CC(C)C)NC(=O)[C@H](Cc1ccc(O)cc1)NC(=O)[C@H](CCCCN)NC(=O)[C@H](CCCCN)NC(=O)[C@@H](NC(=O)[C@H](C)NC(=O)[C@H](CCSC)NC(=O)[C@H](CCC(N)=O)NC(=O)[C@H](CCCCN)NC(=O)[C@H](CCCNC(=N)N)NC(=O)[C@H](CC(C)C)NC(=O)[C@H](CCCNC(=N)N)NC(=O)[C@@H](NC(=O)[C@H](Cc1ccc(O)cc1)NC(=O)[C@H](CC(N)=O)NC(=O)[C@H](CC(=O)O)NC(=O)[C@@H](NC(=O)[C@H](Cc1ccccc1)NC(=O)[C@@H](NC(=O)[C@H](C)NC(=O)[C@H](CC(=O)O)NC(=O)[C@H](CO)NC(=O)[C@@H](N)Cc1c[nH]cn1)C(C)C)[C@@H](C)O)[C@@H](C)O)C(C)C)C(=O)N[C@@H](CC(C)C)C(=O)N[C@@H](CC(N)=O)C(N)=O` [VIP, vasoactive intestinal polypeptide], the “higher activity on VPAC1 than on PAC1” value at VPAC1 was 10-100 ×. Further, at VPAC2, the “higher activity on VPAC2 than on PAC1” value is 10-100 ×.
